How the values were obtained:
[1] = Analytical RP-HPLC retention time as measure of hydrophobicity; assay type: physicochemical; conditions: Supplementary Table S2; Phenomenex Luna C18 (100Å, 5 µm, 4.6 mm x 250 mm), linear gradient 5%B to 45%B over 40 min (ca. 1%B/min) at 1 mL/min
[2] = system: human red blood cells (hRBCs); conditions: result in words; cited from earlier work

CC[C@H](C)[C@@H]1NC(=O)[C@@H](NC(=O)[C@@H](NC(=O)[C@H](CCCNC(=N)N)NC(=O)[C@@H]2CCCN2C(=O)[C@@H](N)CO)C(C)C)CSSC[C@@H](C(=O)N[C@@H](Cc2c[nH]c3ccccc23)C(=O)NCC(=O)O)NC(=O)[C@H](CCCNC(=N)N)NC(=O)[C@H](CCCNC(=N)N)NC(=O)[C@H](Cc2ccc(O)cc2)NC(=O)[C@@H]2CSSC[C@H](NC(=O)[C@H](C(C)C)NC(=O)[C@H](CCCNC(=N)N)NC1=O)C(=O)N[C@@H](CCCNC(=N)N)C(=O)N[C@@H](CC(N)=O)C(=O)NCC(=O)N[C@@H](C(C)C)C(=O)N2
tR (RP-HPLC retention time, hydrophobicity) [1]: 26.7 min | lysis of human red blood cells (hRBCs) [2]: minimal lysis

CC[C@@H](C)[C@H]1NC(=O)[C@H](NC(=O)[C@H](NC(=O)[C@@H](CCCNC(=N)N)NC(=O)[C@H]2CCCN2C(=O)[C@H](N)CO)C(C)C)CSSC[C@H](C(=O)N[C@H](Cc2c[nH]c3ccccc23)C(=O)NCC(=O)O)NC(=O)[C@@H](CCCNC(=N)N)NC(=O)[C@@H](CCCNC(=N)N)NC(=O)[C@@H](Cc2ccc(O)cc2)NC(=O)[C@H]2CSSC[C@@H](NC(=O)[C@@H](C(C)C)NC(=O)[C@@H](CCCNC(=N)N)NC1=O)C(=O)N[C@H](CCCNC(=N)N)C(=O)N[C@H](CC(N)=O)C(=O)NCC(=O)N[C@H](C(C)C)C(=O)N2
tR (RP-HPLC retention time, hydrophobicity) [1]: 26.7 min

Reference: PMC11273936, “The Antimicrobial Peptide Capitellacin: Chemical Synthesis of Analogues to Probe the Role of Disulphide Bridges and Their Replacement with Vinyl Sulphides” (Antibiotics, 2024)
